# High-throughput results (PubChem BioAssay)
# Yeast UUG start – alters start codon recognition fidelity in yeast. S. cerevisiae UUG-firefly luciferase reporter, luminescence/redox ratio. 350,000 tested, 0.13% active. activity score, % at 18.7 µM. AID 602363;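 active means replicate mean at a twofold rise or more, about +100% in these data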;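 further: firefly luciferase made from a UUG start codon reports start codon fidelity; reporter light over untreated wells divided by growth signal over untreated wells; some hits fall short of that in this replicate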
# Dyrk1A ADPGlo – blocks rat Dyrk1A kinase activity; ADP-Glo luminescence, NFATc1 peptide; inhibition, % at 12.5 µM; 0.43% of 310,000 active; in the data active = inhibition above about 50%;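 also: plate controls were vehicle with enzyme for no effect and no enzyme for full effect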
# CAL PDZ FP-1 – human CAL PDZ-peptide interaction inhibition | 0.02% of 330,000 active | AID 504414 | Q9HD26 | purified CAL PDZ, TMR-peptide fluorescence polarization, 1 h | inhibition, % at 20 µM;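 active = highest replicate inhibition of at least 40%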;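 also: plate controls were DMSO neutral control wells for no effect and unlabeled competitor peptide control wells for full effect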
#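 Material: tagged CAL PDZ domain; buffer or medium: 25 mM sodium phosphate pH 7.4, 150 mM NaCl, TCEP, IgG, Thesit; compound dosing: single point, 20 µM; schedule: 1 h incubation at room temperature before polarization reading; measured by: FP readout, S and P plane fluorescence; read-out basis: percent inhibition from loss of millipolarization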
# CDK5 p35 inh – blocks human CDK5/p35 kinase activity | Recombinant CDK5/p35, ADP-Glo luminescence, 60 min | inhibition, % at 10 µM | 0.01% of 330,000 active;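 active = highest replicate inhibition of at least 50% and at least 75% of replicates reaching 50%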;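 also: plate controls were DMSO neutral control for no effect and GW8510 at 10 µM for full effect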
# CAL PDZ FP-2 – blocks peptide binding to the human CAL PDZ domain; Q9HD26; purified CAL PDZ, TMR-peptide fluorescence polarization, 1 h; inhibition, % at 24.9 µM; 0.92% of 300,000 active; AID 602252;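 active = mean inhibition of at least 30% with at least half of replicates also reaching 30%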;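 also: 0% = DMSO neutral control and 100% = excess unlabeled competitor peptide PRC23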
# dFosB act-1 – mouse delta FosB homodimer activation; P13346; purified delta FosB, TAMRA-CDK5 oligo fluorescence polarization; percent of positive-control signal above neutral wells; activation, % at 25 µM; 0.99% of 340,000 active; AID 493131;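 active = mean activation above about 17%, with every replicate also reaching it, limit read from the data, passing the limit was not always enough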
# dFosB act-2 – activators of mouse delta FosB homodimer DNA binding; shares compounds with dFosB act-1; activation, % at 24.9 µM; purified delta FosB, TAMRA-CDK5 oligo fluorescence polarization; normalised: neutral wells 0, positive control 100; AID 588690; 2,400 tested, under 10 active;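 active = highest replicate activation at or above 34% and every replicate reaching that threshold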;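 also: higher polarization means more probe DNA bound by delta FosB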
# * hit, by the source's call; nt = no result given. Most compounds without a hit are left out; they make up all but 1.7% or so of the library.
# Each structure is followed by: CAL PDZ FP-1	Yeast UUG start	Dyrk1A ADPGlo	dFosB act-1	dFosB act-2	CDK5 p35 inh	CAL PDZ FP-2
- O=C(CCCl)Nc1nnc(SCC(=O)NC2CCCC2)s1
  -0.6	-22.1	2.1	19.6*	0.3	-1.2	-4.8
- COc1ccc(C(=O)Nc2nnc(SCC(=O)NCc3ccco3)s2)cc1OC
  -0.9	-9.4	-3.8	26.4*	2.4	2.0	-4.0
- CO[C@H]1CN(C)C(=O)c2ccc(NC(=O)C3CC3)cc2OC[C@H](C)N(C(=O)NC(C)C)C[C@@H]1C
  nt	-3.1	nt	nt	nt	nt	nt
- COc1ccc(C(=O)Nc2nnc(SCC(=O)NC3CC3)s2)cc1
  -3.0	-19.3	-1.3	22.4*	3.2	-0.3	-3.9
- Cc1ccccc1-c1ccc([C@@H]2[C@H](CO)N3CCCCN(C(=O)c4cccnc4)C[C@@H]23)cc1
  nt	-10.1	nt	nt	nt	nt	nt
- C[C@H]1CN([C@@H](C)CO)C(=O)Cc2cc(NS(=O)(=O)c3ccc(F)cc3)ccc2O[C@@H]1CN(C)Cc1ccc(Oc2ccccc2)cc1
  nt	-0.5	nt	nt	nt	nt	nt
- Cc1cccc(C(=O)Nc2ccc(C(=O)N/N=C/c3ccc4c(c3)OCO4)cc2)c1
  -1.9	-12.5	4.6	15.7	nt	-6.6	-1.7
- O=C(N/N=C/c1ccc2c(c1)OCO2)c1ccc(NC(=O)c2ccccc2Cl)cc1
  -2.1	-3.8	7.3	22.6*	-4.7	3.5	1.4
- O=C(N/N=C/c1ccc2c(c1)OCO2)c1cccc(NC(=O)c2ccccc2Cl)c1
  -2.6	-10.1	0.2	21.3*	3.6	-1.7	-2.0
- O=C(Cn1nnc(-c2ccccc2Cl)n1)N/N=C/c1ccc2c(c1)OCO2
  -0.9	-1.5	-7.9	23.6*	-1.0	1.1	-4.0
- O=C(Cc1ccccc1)N/N=C/c1ccc2c(c1)OCO2
  -0.1	nt	-2.8	-2.4	nt	0.0	0.6
- Cc1ccc(S(=O)(=O)N(C)C[C@H]2OCCCC[C@H](C)Oc3ccc(NS(=O)(=O)c4ccc(Cl)cc4)cc3C(=O)N([C@@H](C)CO)C[C@@H]2C)cc1
  nt	-4.9	nt	nt	nt	nt	nt
- C=CCn1c(SCC(=O)Nc2ccccc2OC)nc2c([nH]c3ccccc32)c1=O
  0.3	-12.0	-2.1	44.2*	0.0	-0.1	-5.4
- COCCn1c(SCC(=O)Nc2ccc(F)cc2)nc2c([nH]c3ccccc32)c1=O
  -0.4	-4.5	3.3	11.1	nt	-0.4	0.5
- Cn1c(SCC(=O)Nc2ccc(F)cc2)nc2c([nH]c3ccccc32)c1=O
  -1.8	-18.4	-0.9	21.2*	-0.7	0.8	nt

# The last three records of the part before open the next one:
# Each structure is followed by: CAL PDZ FP-1	Yeast UUG start	Dyrk1A ADPGlo	dFosB act-1	dFosB act-2	CDK5 p35 inh	CAL PDZ FP-2
- C=CCn1c(SCC(=O)Nc2ccccc2OC)nc2c([nH]c3ccccc32)c1=O
  0.3	-12.0	-2.1	44.2*	0.0	-0.1	-5.4
- COCCn1c(SCC(=O)Nc2ccc(F)cc2)nc2c([nH]c3ccccc32)c1=O
  -0.4	-4.5	3.3	11.1	nt	-0.4	0.5
- Cn1c(SCC(=O)Nc2ccc(F)cc2)nc2c([nH]c3ccccc32)c1=O
  -1.8	-18.4	-0.9	21.2*	-0.7	0.8	nt
- CCn1c(SCC(=O)Nc2ccc(NC(C)=O)cc2)nc2c([nH]c3ccccc32)c1=O
  0.1	-15.6	-4.4	39.2*	-0.5	0.3	0.6
- CC(C)CC(=O)NN(C)c1nc(-c2ccccc2)nnc1C(F)(F)F
  -0.8	-6.4	3.0	3.5	nt	-1.5	-1.1
- CN(NC(=O)c1ccc(Cl)cc1)c1nc(-c2ccccc2)nnc1C(F)(F)F
  1.1	-6.0	3.1	31.9*	5.8	-0.1	nt
- C=CCOc1ccc(CN(C)CC(O)COc2cccc3ccccc23)cc1 (configuration not stated)
  -1.4	-3.8	3.1	19.2*	1.8	2.1	-5.8
- Cc1cc(CN(C)Cc2ccc(OCC(O)CN(C)Cc3ccccc3)cc2)on1 (configuration not stated)
  0.9	5.0	0.3	-6.7	nt	1.8	1.8
- CCOc1ccc2nc(NC(=O)c3ccc(S(=O)(=O)N4CCOCC4)cc3)sc2c1
  -2.5	7.1	-0.3	6.2	nt	1.7	-4.8
- CCOc1ccc2nc(NC(=O)c3ccc(OC)c(S(=O)(=O)N4CCOCC4)c3)sc2c1
  -0.4	-16.4	36.6	26.5*	5.3	-1.1	3.6
- C[C@H]1CN([C@@H](C)CO)C(=O)c2cccc(NS(C)(=O)=O)c2O[C@@H]1CN(C)C(=O)Nc1ccccc1
  nt	-11.3	nt	nt	nt	nt	nt
- CCC(=O)Nc1ccc2c(c1)C(=O)N(C)C[C@H](OC)[C@@H](C)CN(C(=O)COC)[C@H](C)CO2
  nt	-0.5	nt	nt	nt	nt	nt
- O=C(CSc1nc2[nH]ncc2c(=O)[nH]1)Nc1ccc(OC(F)(F)F)cc1
  -2.9	nt	16.8	19.1*	-2.0	-0.2	-1.7
- CCCC#Cc1cnc2c(c1)C(=O)N([C@@H](C)CO)C[C@H](C)[C@@H](CN(C)S(=O)(=O)c1ccccc1)O2
  nt	1.5	nt	nt	nt	nt	nt
